Source: PMC11680790

By UniProt entry, the sequences of proteins in these tests, tags left out.
UniProt P35414, whole entry T87V/N112A/T207M/F214L/I224A/S298A: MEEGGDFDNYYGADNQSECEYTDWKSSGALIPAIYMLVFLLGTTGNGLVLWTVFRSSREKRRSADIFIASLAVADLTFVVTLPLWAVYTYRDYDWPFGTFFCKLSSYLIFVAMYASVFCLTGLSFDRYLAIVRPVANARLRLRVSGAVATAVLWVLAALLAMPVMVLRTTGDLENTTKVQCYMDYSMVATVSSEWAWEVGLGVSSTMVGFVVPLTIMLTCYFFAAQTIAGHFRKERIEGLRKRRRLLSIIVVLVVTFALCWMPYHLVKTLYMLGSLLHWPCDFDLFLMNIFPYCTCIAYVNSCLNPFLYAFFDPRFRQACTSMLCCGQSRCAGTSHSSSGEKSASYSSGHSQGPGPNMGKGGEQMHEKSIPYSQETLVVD
UniProt P35414, whole entry T87V/N112A/R168H/T207M/F214L/I224A/S298A: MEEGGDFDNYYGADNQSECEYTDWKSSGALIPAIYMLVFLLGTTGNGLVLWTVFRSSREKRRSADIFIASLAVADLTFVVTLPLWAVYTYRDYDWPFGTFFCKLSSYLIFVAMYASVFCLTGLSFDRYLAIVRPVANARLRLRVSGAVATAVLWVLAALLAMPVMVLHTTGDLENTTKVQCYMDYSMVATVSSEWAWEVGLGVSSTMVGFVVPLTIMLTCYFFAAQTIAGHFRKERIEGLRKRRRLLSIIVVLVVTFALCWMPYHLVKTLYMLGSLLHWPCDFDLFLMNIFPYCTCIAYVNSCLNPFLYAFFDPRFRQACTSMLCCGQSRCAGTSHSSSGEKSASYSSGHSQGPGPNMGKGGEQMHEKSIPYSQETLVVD

Experiments:
[1] = target: apelin receptor NxStaR (Homo sapiens, UniProt P35414, F214L/I224A/N112A/S298A/T207M/T87V); experiment: SPR, pH dependence (Biacore 8K+), NxStaR; conditions: 5% DMSO, 10 °C, single determination
[2] = target: R/H168^4.64 variant NxStaR (Homo sapiens, UniProt P35414, F214L/I224A/N112A/R168H/S298A/T207M/T87V); experiment: SPR, pH dependence (Biacore 8K+), R/H168^4.64 NxStaR; conditions: 5% DMSO, 10 °C, single determination

## CCC(CC)n1c(Cc2cccs2)nc2cc(C(=O)N[C@H](Cc3nn[nH]n3)CC(C)C)ccc21
[1]; pH 6.0 (MES), 0.02% DDM
  Kd: 0.7 nM
[1]; pH 7.5, 0.02% DDM
  Kd: 1.9 nM
[2]; pH 6.0 (MES), 0.02% DDM
  Kd: 3.8 nM
[2]; pH 7.5, 0.02% DDM
  Kd: 38.1 nM
